A short description of the data set: Solubility of the active in the receptor fluid. Format: physicochemical. Conditions: 96 wt % PBS pH 7.4 and 4 wt % hydroxyl propyl beta cyclodextrin.

As to paclitaxel, the “solubility of the active in the receptor fluid” value is roughly 0.4 µg/mL.

These data come from US11497726B2, “Topical therapy for the treatment of cervical intraepithelial neoplasia (CIN) and cervical cancer using nanoparticles of taxanes” (DFB SORIA, LLC, priority 2018, dated 2022).
